{
  "source": "BindingDB's records for doi:10.1016/j.ejmech.2011.01.042",
  "about": "(Ludwig-Maximilians-University Munich, 2011)",
  "molecular_target": "T1, Sodium- and chloride-dependent GABA transporter 3 (Mus musculus, UniProt P31650)",
  "T1 sequence (P31650 whole entry)": "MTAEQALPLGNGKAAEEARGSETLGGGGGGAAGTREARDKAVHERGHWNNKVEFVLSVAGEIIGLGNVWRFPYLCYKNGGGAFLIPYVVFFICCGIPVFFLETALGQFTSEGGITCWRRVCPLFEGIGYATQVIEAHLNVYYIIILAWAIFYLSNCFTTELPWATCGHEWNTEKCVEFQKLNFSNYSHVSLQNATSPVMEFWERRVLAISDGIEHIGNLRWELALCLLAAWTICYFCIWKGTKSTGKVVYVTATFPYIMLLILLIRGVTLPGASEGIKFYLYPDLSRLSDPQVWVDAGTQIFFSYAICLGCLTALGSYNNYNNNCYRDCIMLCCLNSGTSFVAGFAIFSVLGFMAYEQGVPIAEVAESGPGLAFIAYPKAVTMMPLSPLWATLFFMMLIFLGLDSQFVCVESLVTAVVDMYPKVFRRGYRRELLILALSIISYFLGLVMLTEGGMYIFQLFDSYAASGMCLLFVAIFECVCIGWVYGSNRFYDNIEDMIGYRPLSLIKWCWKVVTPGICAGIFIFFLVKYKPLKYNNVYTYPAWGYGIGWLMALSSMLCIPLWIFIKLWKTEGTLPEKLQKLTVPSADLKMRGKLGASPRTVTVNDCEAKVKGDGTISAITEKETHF",
  "data": [
    {"smiles": "NCCCC(=O)O", "note": "[4-amino-n-[2,3-3H]butyric acid]", "values": [
      {"measurement": "IC50", "result": 8.13, "unit": "µM"}
    ]}
  ]
}
